Laboratory results taken from ChEMBL document CHEMBL1145102, “Novel hexahydrospiro[piperidine-4,1'-pyrrolo[3,4-c]pyrroles]: highly selective small-molecule nociceptin/orphanin FQ receptor agonists” (2003).
Values joined by “and” are separate entries in the source; they are usually repeats but may differ in a detail not shown here. Equal entries are not always repeated.

Tests used:
[1] = target: Delta-type opioid receptor (Homo sapiens, UniProt P41143); assay: Inhibition of deltorphin II binding to human Opioid receptor delta 1
Nociceptin receptor = Nociceptin receptor (Homo sapiens, UniProt P41146); assay: Inhibition of N/OFQ binding to human Orphanin FQ receptor (Nociceptin/Orphanin)
[2] = target: Kappa-type opioid receptor (Homo sapiens, UniProt P41145); assay: Inhibition of naloxone binding to human Opioid receptor kappa 1
Mu-type opioid receptor = Mu-type opioid receptor (Homo sapiens, UniProt P35372); assay: Inhibition of DAMGO binding to human Opioid receptor mu 1

Q: Which Log Ki [1] does the source give for `CC(C)[C@H]1CC[C@@H](N2CCC3(CC2)[C@@H]2CN(CCN4CCOCC4)C[C@@H]2CN3c2ccccc2)CC1` here?
A: Its Log Ki is -5.53.

Q: And the Log Ki (Nociceptin receptor)?
A: Its Log Ki is -8.68.

Q: And the Log Ki [2]?
A: The Log Ki was -6.83.

Q: What about the Log Ki (Mu-type opioid receptor) of the same compound?
A: The Log Ki was -6.75.

Q: Which results are given for `CCCCN1C[C@@H]2CN(c3ccccc3)C3(CCN([C@H]4CC[C@@H](C(C)C)CC4)CC3)[C@@H]2C1`?
A: Log Ki [1]: -6.41; Log Ki (Nociceptin receptor): -9.18; Log Ki [2]: -6.6; Log Ki (Mu-type opioid receptor): -6.56

Q: What does the source list for `CN1C[C@@H]2CN(c3ccccc3)C3(CCN(C4CCCCCCCC4)CC3)[C@@H]2C1`?
A: Log Ki [1]: -6.05; Log Ki (Nociceptin receptor): -9.19; Log Ki [2]: -7.25; Log Ki (Mu-type opioid receptor): -6.14

Q: What does the source list for `CC(C)[C@H]1CC[C@@H](N2CCC3(CC2)[C@@H]2CN(CC4CC4)C[C@@H]2CN3c2ccc(F)cc2)CC1`?
A: Log Ki [1]: -5.97; Log Ki (Nociceptin receptor): -8.78; Log Ki [2]: -6.77; Log Ki (Mu-type opioid receptor): -6.18

Q: How did the Log Ki [1] turn out when `CC(C)[C@H]1CC[C@@H](N2CCC3(CC2)[C@@H]2CN(C)C[C@@H]2CN3c2ccccc2)CC1` was run?
A: The Log Ki was -5.63 and -5.67.

Q: What about the Log Ki (Nociceptin receptor) of the same compound?
A: The Log Ki was -8.92 and -9.26.

Q: What about the Log Ki [2] of the same compound?
A: Its Log Ki is -6.55 and -6.51.

Q: What about the Log Ki (Mu-type opioid receptor) of the same compound?
A: Its Log Ki is -6.47 and -6.27.

Q: What does the source list for `CC(C)[C@H]1CC[C@@H](N2CCC3(CC2)[C@@H]2CN(c4ccccc4)C[C@@H]2CN3c2ccccc2)CC1`?
A: Log Ki [1]: -6.66; Log Ki (Nociceptin receptor): -8.78; Log Ki [2]: -6.29; Log Ki (Mu-type opioid receptor): -6.87

Q: With `CN1C[C@@H]2CN(c3ccccc3)C3(CCN(C4CCCCCCCCC4)CC3)[C@@H]2C1` as the compound, how does the Log Ki [1] read?
A: The Log Ki was -6.43.

Q: What about the Log Ki (Nociceptin receptor) of the same compound?
A: Its Log Ki is -9.35.

Q: And the Log Ki [2]?
A: The Log Ki was -7.57.

Q: What about the Log Ki (Mu-type opioid receptor) of the same compound?
A: The Log Ki was -7.06.

Q: With `CC(C)[C@H]1CC[C@@H](N2CCC3(CC2)[C@@H]2CN(Cc4ccccc4)C[C@@H]2CN3c2ccccc2)CC1` as the compound, how does the Log Ki [1] read?
A: Its Log Ki is -6.04.

Q: And the Log Ki (Nociceptin receptor)?
A: Its Log Ki is -8.67.

Q: What about the Log Ki [2] of the same compound?
A: The Log Ki was -6.81.

Q: What about the Log Ki (Mu-type opioid receptor) of the same compound?
A: Its Log Ki is -6.81.

Q: How did the Log Ki [1] turn out when `CN1C[C@@H]2CN(c3ccccc3)C3(CCN([C@H]4CC[C@@H]5CCCC[C@@H]5C4)CC3)[C@@H]2C1` was run?
A: Its Log Ki is -5.99.

Q: And the Log Ki (Nociceptin receptor)?
A: The Log Ki was -9.28.

Q: And the Log Ki [2]?
A: The Log Ki was -6.88.

Q: And the Log Ki (Mu-type opioid receptor)?
A: Its Log Ki is -6.38.

Q: With `CC(C)[C@H]1CC[C@@H](N2CCC3(CC2)[C@@H]2CNC[C@@H]2CN3c2ccccc2)CC1` as the compound, how does the Log Ki [1] read?
A: The Log Ki was -5.75.

Q: What about the Log Ki (Nociceptin receptor) of the same compound?
A: The Log Ki was -8.66.

Q: What about the Log Ki [2] of the same compound?
A: Its Log Ki is -6.59.

Q: And the Log Ki (Mu-type opioid receptor)?
A: Its Log Ki is -6.3.

Q: Which Log Ki [1] does the source give for `CC(C)[C@H]1CC[C@@H](N2CCC3(CC2)[C@@H]2CN(CCO)C[C@@H]2CN3c2ccccc2)CC1` here?
A: The Log Ki was -6.03.

Q: What about the Log Ki (Nociceptin receptor) of the same compound?
A: Its Log Ki is -9.11.

Q: What about the Log Ki [2] of the same compound?
A: The Log Ki was -6.88.

Q: What about the Log Ki (Mu-type opioid receptor) of the same compound?
A: Its Log Ki is -6.76.
